The values below come from ChEMBL document CHEMBL1133696, “Development of a lead inhibitor for the A16V+S108T mutant of dihydrofolate reductase from the cycloguanil-resistant strain (T9/94) of Plasmodium falciparum” (J Med Chem, 2000).

Sequences of proteins named here, by UniProt entry; tags and fusion partners are left off.
UniProt P13922, whole entry, looked up, stated change not applied: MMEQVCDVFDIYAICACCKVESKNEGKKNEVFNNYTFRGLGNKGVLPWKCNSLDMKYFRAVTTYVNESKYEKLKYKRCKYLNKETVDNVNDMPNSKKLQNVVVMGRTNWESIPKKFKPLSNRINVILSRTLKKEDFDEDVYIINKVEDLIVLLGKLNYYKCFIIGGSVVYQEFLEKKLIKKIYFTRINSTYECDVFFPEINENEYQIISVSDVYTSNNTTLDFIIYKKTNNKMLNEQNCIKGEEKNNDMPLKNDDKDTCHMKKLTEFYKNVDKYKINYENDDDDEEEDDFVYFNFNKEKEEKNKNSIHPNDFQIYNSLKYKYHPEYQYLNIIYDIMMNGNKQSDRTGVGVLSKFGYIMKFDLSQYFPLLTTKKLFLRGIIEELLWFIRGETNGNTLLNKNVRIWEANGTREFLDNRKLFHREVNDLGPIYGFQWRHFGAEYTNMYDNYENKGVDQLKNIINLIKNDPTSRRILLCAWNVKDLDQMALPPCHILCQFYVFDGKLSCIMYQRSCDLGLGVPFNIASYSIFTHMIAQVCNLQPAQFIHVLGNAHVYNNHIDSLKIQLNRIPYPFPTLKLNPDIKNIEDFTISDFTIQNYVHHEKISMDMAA

The target in test [1] is Bifunctional dihydrofolate reductase-thymidylate synthase (Plasmodium falciparum K1) (UniProt P13922). Put plainly: Selectivity ratio of growth inhibition against Plasmodium falciparum TM4/8.2(wild-type) and T9/94(mutant). In kind it is functional.
Test [2] shares this target. Put plainly: Evaluated for activity of compound relative to Cycloguanil.
The target is the same in test [3]. Put plainly: Evaluated for activity of relative to Cycloguanil.
In test [4] the target is Bifunctional dihydrofolate reductase-thymidylate synthase (Plasmodium falciparum K1, UniProt P13922, A16V/S108T). The test can be described thus: Inhibition constant (Ki mut) against A16V+S108T Mutant DHFRs of Plasmodium falciparum.
Test [5] addresses Bifunctional dihydrofolate reductase-thymidylate synthase (Plasmodium falciparum K1) (UniProt P13922). The test can be described thus: Ratio of inhibitory constant of mutant by wild-type DHFRs of Plasmodium falciparum.

Take `CC1(C)N=C(N)N=C(N)N1c1cccc(Cl)c1`: in test [1], the IC50 ratio was determined as 4.97. The Relative activity in test [2] came out at 0.3; in test [3], 2.5. Further, the affinity in test [4] corresponds to a Ki of 340 nM. Also, the Ratio in test [5] amounted to 92.

Regarding `CC1N=C(N)N=C(N)N1c1cccc(Cl)c1` (configuration not stated), the Relative activity in test [2] was determined as 0.03. In addition, in test [4], the Ki worked out at 38.7 nM.

By Ki is commonly meant a measure of affinity in units of concentration, obtained from inhibition or displacement. A lower Ki goes with a stronger hold on the target.
